# From US11371077B2, “High throughput cell-based screening for aptamers” (MeiraGTx UK II Limited, priority 2016, dated 2022)
# System: yxj-A6 riboswitch
# Assay type: cell-based
# Conditions: Prestwick library compounds at 100 μM, HEK 293
# Description: Riboswitches were constructed as described in PCT/US2016/016234 (in particular Examples 3 to 6), incorporated herein by reference. A truncated human beta-globin intron sequence was synthesized and inserted in the coding sequence of a firefly luciferase gene. A mutant human DHFR exon 2 was synthesized and inserted in the middle of this truncated beta-globin intron sequence using Golden gate cloning strategy. Aptamers including xpt-G/A^1, ydhl-G/A^2, yxj^3, add^4, gdg6-G/A^5 (citations for the aptamers are incorporated herein by reference) were synthesized as oligonucleotides (“oligos”) with 4 nucleotide overhang at the 5′ end that are complementary to two different BsaI sites individually (IDT), annealed and ligated to BsaI-digested mDHFR-Luci-acceptor vector.
# 3.5×10^4 HEK 293 cells were plated in a 96-well flat bottom plate the day before transfection. Plasmid DNA (500 ng) was added to a tube or a 96-well U-bottom plate. Separately, TransIT-293 reagent (Mirus; 1.4 μL) was added to 50 μL Opti-mem I media (Life Technologies), and allowed to sit for 5 minutes at room temperature (RT). […]
# 24 hours after media change, plates were removed from the incubator, and equilibrated to RT for several minutes on a lab bench, then aspirated. […] Following a 5 min incubation at RT, luminescence was measured using a Tecan machine with 500 mSec read time. […]
substance,measurement,value
Pirlindole mesylate,Fold Induction of luciferase activity,3.2 fold
